The results in this text go back to PMC6033896, “Discovery of Mcl-1 inhibitors from integrated high throughput and virtual screening” (Scientific Reports, 2018).

The target in this assay is T1, fluorescent labelled Bid BH3 peptide (fluorescent label (Flu- or FAM-), position not stated).
T1 construct: BH3 peptide derived from the pro-apoptotic protein Bid; The methods name two probes (Flu-Bid with Mcl-1); the two probes may differ in label and limits; also called Flu-Bid; FAM-Bid
The assay can be described thus: fluorescence polarisation; direct binding of the fluorescent Bid probe to recombinant protein; Ex 485 nm, Em 530 nm, room temperature; buffer of the Kd determination not told apart from the two competitive assay buffers. The note with it: both partners purified. (In general: In fluorescence polarisation assays a small probe gives low polarisation when free and higher when bound to something large.)

What is called Kd is a measure of binding affinity in units of concentration.

B1: recombinant Bcl-2 protein (natural protein)
chain: MAHAGRTGYDNREIVMKYIHYKLSQRGYEWDAGDDVEENRTEAPEGTESEVVHLTLRQAGDDFSRRYRRDFAEMSSQLHLTPFTARGRFATVVEELFRDGVNWGRIVAFFEFGGVMCVESVNREMSPLVDNIALWMTEYLNRHLHTWIQDNGGWDAFVELY
For the molecule B1, the Kd was found to be 18.4 ± 1.4 nM.
